Experimental data published in US9108905B2, “TRPA1 antagonists” (AbbVie Inc., priority 2008, dated 2015).

By UniProt entry, the sequences of proteins in these tests, tags left out.
UniProt O75762, whole entry: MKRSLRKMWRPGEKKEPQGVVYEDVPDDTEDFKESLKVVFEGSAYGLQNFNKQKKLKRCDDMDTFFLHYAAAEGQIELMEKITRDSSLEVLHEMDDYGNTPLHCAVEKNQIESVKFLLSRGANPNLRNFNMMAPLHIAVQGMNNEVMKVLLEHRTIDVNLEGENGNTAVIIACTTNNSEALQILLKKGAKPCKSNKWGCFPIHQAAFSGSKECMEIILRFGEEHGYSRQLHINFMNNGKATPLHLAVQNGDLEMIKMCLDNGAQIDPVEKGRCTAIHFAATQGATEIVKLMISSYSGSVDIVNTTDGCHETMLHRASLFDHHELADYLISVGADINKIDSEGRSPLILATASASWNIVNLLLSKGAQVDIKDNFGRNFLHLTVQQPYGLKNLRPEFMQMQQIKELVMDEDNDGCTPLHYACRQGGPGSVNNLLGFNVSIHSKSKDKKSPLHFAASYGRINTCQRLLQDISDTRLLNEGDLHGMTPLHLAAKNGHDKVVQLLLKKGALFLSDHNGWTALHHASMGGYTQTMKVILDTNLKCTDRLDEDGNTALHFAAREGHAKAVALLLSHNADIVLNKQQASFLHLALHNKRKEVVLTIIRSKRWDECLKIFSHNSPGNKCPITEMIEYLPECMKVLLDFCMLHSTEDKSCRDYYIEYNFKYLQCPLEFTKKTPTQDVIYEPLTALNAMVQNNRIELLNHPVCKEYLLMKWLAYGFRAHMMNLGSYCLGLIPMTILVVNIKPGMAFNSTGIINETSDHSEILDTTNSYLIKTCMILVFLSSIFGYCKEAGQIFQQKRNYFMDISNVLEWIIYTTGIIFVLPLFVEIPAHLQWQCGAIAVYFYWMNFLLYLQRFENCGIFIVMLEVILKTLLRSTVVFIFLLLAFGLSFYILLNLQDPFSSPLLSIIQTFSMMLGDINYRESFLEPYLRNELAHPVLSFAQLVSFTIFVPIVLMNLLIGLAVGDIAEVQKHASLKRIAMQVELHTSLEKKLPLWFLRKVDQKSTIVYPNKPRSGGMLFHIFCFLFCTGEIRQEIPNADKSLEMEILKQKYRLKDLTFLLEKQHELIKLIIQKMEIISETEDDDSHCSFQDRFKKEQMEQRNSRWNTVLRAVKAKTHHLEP

Columns and labels:
[1] = Pharmacokinetics after oral dose in fasted male Sprague-Dawley rats (plasma and brain)
Human TRPA1 = Human TRPA1 (Homo sapiens (Human), UniProt O75762); test: FLIPR based intracellular Ca2+ assay and membrane potential assay, inhibition of AITC-activated TRPA1; assay type: cell-based; settings: read-out: Human TRPA1 IC50; Table 2; comparison of Compound A and Example 1

F, rat (oral bioavailability) @ 10 μmol/kg ([1]; oral gavage, 10 μmol/kg, solution in 10% DMSO/PEG-400): 4%
plasma/brain ([1]; rat, after oral administration, text calls it brain/plasma ratio): 0
Cmax ([1]; read-out: Cmax @ 10 μmol/kg, rat, oral, 10 μmol/kg, plasma): 220 nM
IC50 (Human TRPA1): 0.33 µM
Structure (SMILES): CC(=C\c1ccc(F)cc1)/C(C)=N/O
